The assay has as its target T1, human CysLT1 receptor (Homo sapiens, UniProt Q9Y271).
T1 construct: expressed in transfected cells; host or cells: AV12-664 (ATCC-9595)
T1 sequence (Q9Y271 1-337): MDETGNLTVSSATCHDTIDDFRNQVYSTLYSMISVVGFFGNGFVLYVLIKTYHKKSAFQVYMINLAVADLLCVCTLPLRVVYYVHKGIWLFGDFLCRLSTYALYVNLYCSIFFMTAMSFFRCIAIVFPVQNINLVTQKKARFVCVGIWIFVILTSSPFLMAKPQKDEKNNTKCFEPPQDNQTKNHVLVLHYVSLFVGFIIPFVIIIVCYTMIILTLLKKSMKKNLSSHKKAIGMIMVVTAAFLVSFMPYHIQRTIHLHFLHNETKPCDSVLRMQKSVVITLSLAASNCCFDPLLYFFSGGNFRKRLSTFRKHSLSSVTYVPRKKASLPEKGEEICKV
The assay can be described thus: Antagonism of LTD4-induced increase in intracellular calcium within a CysLT1 receptor expressing cell line (FLIPR). The format is cell-based. The note with it: AV12-664 cells expressing human CysLT1; 6 nM LTD4; read-out: antagonism of CysLT1 receptors, IC50. The source says:
Antagonism of Cysteinyl-leukotriene D4 (LTD4)—Induced Increase in Intracellular Calcium within a Cysteinyl-Leukotriene 1 (CysLT1) Receptor Expressing Cell Line
Confluent cultures are passaged weekly. Intracellular calcium levels are monitored in the CysLT1-expressing cells with the addition of LTD4, with or without prior exposure to the compounds being tested as antagonists with a Fluorometric Imaging Plate Reader (FLIPR, Molecular Devices). The following buffer is used throughout as an assay buffer: Hanks Buffered Saline Solution without phenol red (GIBCO), with 10 mM HEPES pH 7.4. Cells that had been plated 48 hours prior at a density of 20-25,000 cells per well in a 96-well plate are loaded with a calcium-sensitive dye for 90 minutes at 25° C. Fluo-3 (2 mM in DMSO, Molecular Probes) is mixed with an equal volume of 10% pluronic acid in DMSO, and diluted to 8 μM in the buffer described above containing 10% fetal bovine serum to make the loading buffer. Following loading of the cells, the buffer is removed and replaced with assay buffer prior to drug addition and monitoring on the FLIPR for several minutes. […] Least squares curve fitting with a four-parameter equation is applied to the resulting dose-% inhibition curve to determine the resulting IC50 values.
For orientation: Calcium flux is commonly read through the fluorescence of an indicator in the cells.

Molecules are shown by their SMILES.

As for `CCCc1c(OCc2ccc(S(=O)(=O)Nc3cccc(-c4nn[nH]n4)c3)cc2)ccc(C(C)=O)c1O` [Example 8, 4-(4-acetyl-3-hydroxy-2-propyl-phenoxymethyl)-N-[3-(2H-tetrazol-5-yl)-phenyl]-benzenesulfonamide], the IC50 was under 500 nM.

In general, IC50 refers to the concentration at which inhibition is half-maximal.

Values taken from patent US7678794B2, “Potentiators of glutamate receptors” (Eli Lilly and Company, priority 2004, dated 2010).
